The text below walks through data of ChEMBL document CHEMBL1137837, “Long-chain formoterol analogues: an investigation into the effect of increasing amino-substituent chain length on the beta2-adrenoceptor activity” (Bioorg Med Chem Lett, 2004).

The species named for assay [1] is Oryctolagus cuniculus. In words: Concentration required to inhibit electrically induced contraction of superfused guinea-pig trachea was determined.
The species named for assay [2] is Oryctolagus cuniculus. The experiment in a line: Duration action in guinea pig.

The structures appear in SMILES notation.

For orientation: IC50 means the concentration at which inhibition is half-maximal.

With `COc1ccc(CC(C)NCC(O)c2ccc(O)c(NC=O)c2)cc1` (configuration not stated) [FORMOTEROL], in the assay listed under Oryctolagus cuniculus [1], the IC50 came to 1.4 nM. The molecule also showed a Duration in the assay filed under Oryctolagus cuniculus [2] of 1.92 h.
